Data taken from article PMC8817670 (Journal of medicinal chemistry, 2021).

Protein sequences, listed by entry. Tags and fused reporters are not part of them. Residues count along the entry.
UniProt P30536, whole entry: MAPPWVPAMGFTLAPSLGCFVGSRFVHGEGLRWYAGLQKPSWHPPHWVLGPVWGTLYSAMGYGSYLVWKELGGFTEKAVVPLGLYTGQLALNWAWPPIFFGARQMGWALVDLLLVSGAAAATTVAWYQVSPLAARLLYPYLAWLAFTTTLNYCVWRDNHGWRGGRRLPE
UniProt P30536, 2-169: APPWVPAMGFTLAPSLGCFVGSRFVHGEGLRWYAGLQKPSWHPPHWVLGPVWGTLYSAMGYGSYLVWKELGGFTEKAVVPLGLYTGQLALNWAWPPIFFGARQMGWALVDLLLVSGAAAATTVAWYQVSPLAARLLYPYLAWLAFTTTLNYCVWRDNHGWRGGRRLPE

How the values were obtained:
TSPO in rat kidney = TSPO in rat kidney (Rattus norvegicus, UniProt P16257); assay: [3H]PK11195 displacement binding, rat kidney membranes; settings: lipE = pKi – logD
[1] = target: TSPO in human U87MG cells (Homo sapiens, UniProt P30536); assay: [3H]PK11195 displacement binding, human U87MG cell membranes; settings: lipE = pKi – logD
[2] = target: human cerebellum TSPO, HAB genotype (Homo sapiens, UniProt P30536); assay: [3H]PK11195 binding assay, human cerebellum homogenates, HAB genotype
[3] = target: human cerebellum TSPO, LAB genotype (Homo sapiens, UniProt P30536); assay: [3H]PK11195 binding assay, human cerebellum homogenates, LAB genotype

In the case of CCC(C)N(C)C(=O)c1cc2ccccc2c(-c2ccccc2Cl)n1 (stereo not shown) [PK11195, reference compound], the lipE rat kidney (TSPO in rat kidney) is reported as 4.50, the “lipE human U87MG” value [1] is reported as 4.57 and the Ki [2] is reported as 26.1 ± 18.5 nM. It also gave a Ki [3] of 17.8 ± 20.9 nM.
